Test results: PubChem BioAssay AID624351 (Southern Research Specialized Biocontainment Screening …, 2012)
The list shows a part of the results, in another mix than the full data. Active and inactive are the calls of the source.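 The calls were made as follows: active = inhibition of 30% or more at any tested dose; inconclusive = primary hits over the limit that were never retested; inactive = the rest.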

experiment: coupled detection enzyme interference, dose response, artefact control for MgcRacGAP inhibitor project, biochemical, coupled enzyme counter-screen (AID 624351); conditions: ADP Hunter coupled enzyme counter-screen, fluorescence, no MgcRacGAP; at 80 µM (top of the series);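 also: signal is the ADP detection kit reading of free GDP without any GAP enzyme; 0% = median positive control wells and 100% = median negative control wells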

Compound	inhibition
C[N+]1=C2C=CC=CC=C2SC12C([N+](=O)[O-])=CC([N+](=O)[O-])=C[C-]2[N+](=O)[O-] (stereo unspecified)	inactive: 4.41%
